Earlier results as cited in patent US12678402B2, “Treatment with powdered intranasal epinephrine” (Nasus Pharma Ltd., priority 2020, dated 2026).
Read-outs that look alike come from different tables or passages of the source.

For CNC[C@H](O)c1ccc(O)c(O)c1 [Epinephrine], the AUC0-120 min (0.3 mg IM, listed as IM epinephrine) is given as 19.4 ng·min/mL and the AUC0-120 min (5 mg IN, listed as Epinephrine 5 mg IN) is given as 19.4 ± 12.1 ng·min/mL.
